Laboratory results published in US20190257816A1, “DIFFERENTIAL BH3 MITOCHONDRIAL PROFILING” (Eutropics Pharmaceuticals, Inc., priority 2013, published 2019).

By UniProt entry, the sequences of proteins in these tests, tags left out.
UniProt P10415, whole entry: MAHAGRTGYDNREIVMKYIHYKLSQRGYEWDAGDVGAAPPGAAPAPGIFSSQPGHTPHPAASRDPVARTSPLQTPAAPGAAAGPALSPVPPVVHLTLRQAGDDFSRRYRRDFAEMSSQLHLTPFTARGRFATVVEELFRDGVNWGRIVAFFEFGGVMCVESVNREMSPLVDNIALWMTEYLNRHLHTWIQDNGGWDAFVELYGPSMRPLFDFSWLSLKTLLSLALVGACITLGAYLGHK

Molecular target: BCL-2 (Homo sapiens, UniProt P10415)
Experiment: BH3 domain binding affinities to BCL-2

Structure (SMILES): CC1(C)CCC(c2ccc(Cl)cc2)=C(CN2CCN(c3ccc(C(=O)NS(=O)(=O)c4ccc(N[C@H](CCN5CCOCC5)CSc5ccccc5)c(S(=O)(=O)C(F)(F)F)c4)cc3)CC2)C1 [ABT-263, Navitoclax]
- Kd: 0.02 nM
